Consider one molecule from US6667034B2, “METHODS FOR REGULATING THE SPECIFIC LINEAGES OF CELLS PRODUCED IN A HUMAN HEMATOPOIETIC CELL CULTURE, METHODS FOR ASSAYING THE EFFECT OF SUBSTANCES ON LINEAGE-SPECIFIC CELL PRODUCTION, AND CELL COMPOSITIONS PRODUCED BY THESE CULTURES” (The Regents of the University of Michigan, priority 1989, dated 2003).

Holding throughout (format): cell-based
In experiment [1] the test system is Human bone marrow cells. The experiment can be described thus: Cumulative number of progenitor cells removed from rapidly perfused HGF supplemented LTBMCs (Example 5, Table 5). On the procedure:
Hematopoietic progenitor cell assay: Nonadherent hematopoietic cells removed from culture were counted and plated at 1·10^5 cells/ml or fewer cells in methylcellulose. […] The cells were plated in 24 well plates at 0.25 ml/well and incubated at 37° C. for 14 days. The colonies were then counted under an inverted microscope and colonies greater than 50 cells were scored as GM-colony forming units (CFU-GM), erythroid burst-forming unit (BFU-E), or granulocyte erythroid megakaryocyte macrophage-colony forming unit (CFU-GEMM). Cells, hematopoietic progenitor cell assays, LTBMCs, and statistical analyses were as in Example 1.

Experiment [2] relates to Human bone marrow cells. The experiment can be described thus: Hematopoietic progenitor cell assay in methylcellulose (CFU-GM, BFU-E, CFU-GEMM) of nonadherent cells from HGF supplemented LTBMCs (Example 2). The following applies: single growth factor alone. On the procedure: Hematopoietic progenitor cell assay: Nonadherent hematopoietic cells removed from culture were counted and plated at 1·10^5 cells/ml or fewer cells in methylcellulose. […] The cells were plated in 24 well plates at 0.25 ml/well and incubated at 37° C. for 14 days. The colonies were then counted under an inverted microscope and colonies greater than 50 cells were scored as GM-colony forming units (CFU-GM), erythroid burst-forming unit (BFU-E), or granulocyte erythroid megakaryocyte macrophage-colony forming unit (CFU-GEMM).

The subject of experiment [3] is Human bone marrow cells. The experiment can be described thus: Cumulative cell production by cell lineage in growth factor supplemented LTBMCs over the first 6.5 weeks (Example 5, Table 4). The following applies: first 6.5 weeks of culture. From the text: Cells, hematopoietic progenitor cell assays, LTBMCs, and statistical analyses were as in Example 1.
In experiment [4] the test system is Human bone marrow cells. The experiment can be described thus: Population balance: cumulative production of CFU-GM removed and differentiated in HGF supplemented LTBMCs (Example 5, Table 7). From the text: (§1) Production of Progenitor Cells from Stem Cells. Although the most primitive hematopoietic cells that can be directly assayed are the progenitor cells; CFU-GEMM, CFU-GM, and BFU-E, the presence and activity or earlier stem cells can be inferred by the continued production of progenitor cells. Thus, progenitor cell production is an indirect measure of primitive stem cell activity. One can assay stem cells, therefore, by analyzing the kinetics of the progenitor cell pool. The four process rates that determine the progenitor cell pool size are: V1: The rate of production of progenitor cells by more undifferentiated stem cells; V2: The rate of loss of progenitor cells through the act of sampling of nonadherent cells from the culture; V3: The rate of loss of progenitor cells by their differentiation to mature cells of a particular lineage; V4: The rate of death of progenitor cells. The initial number, C0, of each progenitor cell species can be determined by assay at culture initiation. The question that we wish to answer is; Are stem cells being stimulated to produced progenitor cells—i.e. is V1 greater than zero? Cell death, V4, cannot be assessed. V2 however, can be measured by assaying the nonadherent cells removed from culture, and V3 can be estimated from nonadherent cell production data. A conservative estimate of the rate of progenitor cell differentiation, V3, can be determined by assuming that each progenitor cell has 10 divisions remaining to become a terminally differentiated cell. Therefore, each progenitor cell is equivalent to 2^10 (1024) mature cells. From the total number of mature cells produced of a specific lineage, the number of progenitor cells (BFU-E and CFU-GM) that differentiated can be back-calculated. Therefore, if the removal and differentiation of progenitor cells (V2+V3) exceeds the numbers of progenitor cells inoculated, Co, then progenitor cells must have been produced, and V1 is greater than zero.

For experiment [5], the system named is Human bone marrow cells. The experiment in a line: Population balance: cumulative production of BFU-E removed and differentiated in HGF supplemented LTBMCs (Example 5, Table 6).
Source text: as §1

Experiment [6] concerns Human bone marrow cells. The experiment in a line: Nonadherent cell production in rapidly exchanged growth factor supplemented LTBMCs (Example 2). The following applies: throughout the 18 weeks of culture; 50% daily medium exchange; IL-3 1 ng/ml, Epo 0.1 U/ml.
Experiment [7] concerns Human bone marrow cells. The experiment in a line: Morphologic analysis of nonadherent cells from HGF supplemented LTBMCs (Example 2). The note with it: at week 18. On the procedure:
Methycellulose and morphologic assays: Once every other week, the non-adherent cells removed for cell counts were plated in methylcellulose in the presence of erythropoietien, GM-CSF, and IL-3, and the Granulocyte Macrophage-Colony Forming Units (CFU-GM) were enumerated. Aliquots of removed cells were cytocentrifuged, stained with Wright-Giemsa, and differential cell counts were performed.
Hematopoietic growth factors (HGH): Due to the frequent culture supplementation via rapid medium exchange, hematopoietic growth factors were added daily to the medium at approximately 1/20 of the concentrations found to promote maximal colony formation in clonal assays. […]
LTBMC conditions: The cultures were incubated at 37° C. in a humidified 5% CO2/95% air atmosphere and perfused (medium exchanged) at a rate of 50% daily medium exchange. […] After the first week in culture, 50% of the total nonadherent cells were removed from the cultures on a biweekly basis during the medium exchange, mononucleated cells counted, and fresh medium returned to the wells. The remaining five days per week when the cells were not counted, 50% of the medium was removed from each of the culture wells and replaced with fresh medium, the removed medium was centrifuged, the medium decanted from the cell pellet, and the cells returned to their original wells.

The mark [8] stands for this setting: cumulative, rapidly perfused LTBMCs.
[9] abbreviates: rapidly perfused HGF supplemented LTBMCs.
[10] abbreviates: IL-3 1 ng/ml, GM-CSF 1 ng/ml, Epo 0.1 U/ml, IL-6 10 U/ml, G-CSF 0.1 ng/ml.
Setting [11] is: back-calculated assuming each progenitor cell is equivalent to 2^10 (1024) mature cells.

B1: IL-3: hematopoietic growth factor (cytokine) added daily to the medium at 1 ng/ml (protein, UniProt P08700 20-152, looked up)
Interleukin-3: APMTQTTPLKTSWVNCSNMIDEIITHLKQPPLPLLDFNNLNGEDQDILMENNLRRPNLEAFNRAVKSLQNASAIESILKNLLPCLPLATAAPTRHPIHIKDGDWNEFRRKLTFYLKTLENAQAQQTTLSLAIF
Regarding B1, the “increase in the total number of CFU-GEMM removed from culture” value in experiment [1] (setting [8]) stood at 1.8 fold. For the same molecule, in experiment [1] (individual growth factor), the “effect on total CFU-GM” value is given as “only a slight increase”. Moreover, in experiment [1] (setting [9]), the “cumulative number of progenitor cells removed: BFU-E” value is listed as 1900, the “cumulative number of progenitor cells removed: CFU-GEMM” value amounted to 90 and the “cumulative number of progenitor cells removed: CFU-GM” value came out at 2100. Besides, in experiment [2], the “effect on BFU-E production” value was “mild short-lived stimulation of BFU-E production in weeks 3-5”. Further, in experiment [3] (setting [10]), the “Cumulative cell production: Early Granulocytes (EG)” value is on record as 3.0 ×10^6 cells per culture, the “Cumulative cell production: Erythroid (E)” value was 0.14 ×10^6 cells per culture, the “Cumulative cell production: Late Granulocytes (LG)” value is recorded as 3.1 ×10^6 cells per culture and the “Cumulative cell production: Macrophages (Mo)” value is 2.9 ×10^6 cells per culture. Further, in experiment [3] (late to early granulocytes), the “ratio (LG/EG)” value was found to be 1. In addition, the “Estimated number of CFU-GM that differentiated (V3)” value in experiment [4] (setting [11]) is recorded as 9000. For the same molecule, the “Number of GM cells removed (×10^4) (V3)” value in experiment [4] (setting [8]) is listed as 9.0 ×10^4. Moreover, the “Number of CFU-GM removed (plated) (V2)” value in experiment [4] (every fourth biweekly sampling assayed, others by linear interpolation, inoculum 2500 CFU-GM) is given as 2100. Further, the “Total number of CFU-GM (V3)” value in experiment [4] (removed plus differentiated) was 11,100. The “Estimated number of BFU-E that differentiated (V3)” value in experiment [5] (setting [11]) is on record as 100. The “Number of erythroid cells removed (×10^4) (V3)” value in experiment [5] (setting [8]) is on record as 0.1 ×10^4. The “Number of BFU-E removed (plated) (V3)” value in experiment [5] (every fourth biweekly sampling assayed, others by linear interpolation, inoculum 2900 BFU-E) is listed as 1900. Also, the “Total number of BFU-E (V3)” value in experiment [5] (removed plus differentiated, inoculum 2900) worked out at 2000. In experiment [6], the “average increase in nonadherent cell production over controls” value is reported as 175%. The “percentage of nonadherent cells being late granulocytes (LG)” value in experiment [7] is reported as “about 20%”.
